Laboratory results from PubChem BioAssay AID1259398 (Fisher Drug Discovery Resource Center, 2018).
“And” between values parts separate entries of the source, which are not always exact repeats. Equal values may be shown once. Only a part is listed here, and it is no random draw. The source made the active and inactive calls. No stated cut-off is given here; in the data, active means inhibition above about 40%; inactive means the rest.

Sequences of proteins named here, by UniProt entry; tags and fusion partners are left off.
UniProt Q8N884, whole entry, looked up: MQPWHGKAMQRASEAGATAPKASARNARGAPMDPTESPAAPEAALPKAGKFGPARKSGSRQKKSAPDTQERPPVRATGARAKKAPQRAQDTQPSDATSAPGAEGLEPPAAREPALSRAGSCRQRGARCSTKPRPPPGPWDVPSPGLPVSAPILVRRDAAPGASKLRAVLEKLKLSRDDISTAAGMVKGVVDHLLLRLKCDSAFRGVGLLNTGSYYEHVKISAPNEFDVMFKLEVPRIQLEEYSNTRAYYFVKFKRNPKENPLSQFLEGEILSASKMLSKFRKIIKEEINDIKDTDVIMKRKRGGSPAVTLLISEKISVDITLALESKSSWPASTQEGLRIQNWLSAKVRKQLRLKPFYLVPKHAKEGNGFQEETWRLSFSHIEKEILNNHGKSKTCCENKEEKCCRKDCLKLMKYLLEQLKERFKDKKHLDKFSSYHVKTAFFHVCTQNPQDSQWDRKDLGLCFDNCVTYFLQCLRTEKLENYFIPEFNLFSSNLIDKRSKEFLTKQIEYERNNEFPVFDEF

What follows are compounds tested against Cyclic GMP-AMP synthase (Homo sapiens) (UniProt Q8N884) (assay: Biochemical Kinase-Glo luminescence primary assay, human cyclic GMP-AMP synthase inhibition (AID 1259398;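 further: 0% = vehicle reaction and 100% = reaction without DNA for no activity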)). Details: recombinant h-cGAS, ATP depletion, at 12.5 µM, active compounds read high.
CCOP1(=S)c2c(C)nn(-c3ccccc3)c2N=C(c2ccccc2)N1C1CC1 (configuration not stated) was tested, and the inhibition was inactive: -4.43%. In the case of CCCCOP(=O)(OCCCC)N(CC)CC, the inhibition is reported as inactive: -4.03%. With Cc1ccc(NC(=O)COC(=O)C(C)(O)c2cccc(F)c2)c(C)c1 (configuration not stated) the inhibition was inactive: -5.66%. With COP(=O)(NS(=O)(=O)c1ccc(Cl)cc1)OC the inhibition was inactive: -10.9% and inactive: -4.23%. For O=C(OC1CN2CCC1CC2)C1COc2ccccc2O1 (configuration not stated), the inhibition was inactive: -5.83%. CCCCOP1(=S)N=C2c3ccccc3CN2c2cc(N(C)C)ccc21 (configuration not stated) was tested, and the inhibition was inactive: -3.61%. With O=P(Nc1nccs1)(c1ccc(Br)cc1)c1ccc(Br)cc1 the inhibition was inactive: -11.4%. With CCOP1(=S)c2c(C)nn(-c3ccccc3)c2N=C(c2ccccc2F)N1C (configuration not stated) the inhibition was inactive: -8.63%. O=P(O)(O)F was tested, and the inhibition was inactive: -1.66% and inactive: -3.74%. O=C(NC(Sc1ccncn1)C(Cl)(Cl)Cl)c1ccccc1 (configuration not stated) was tested, and the inhibition was inactive: -5.01%. In the case of Cc1c2non([O-])c-2c(C)[n+](=O)[n+]1[O-], the inhibition is reported as inactive: -4.48%. CCN(CC)C1=NP(=O)(c2ccccc2)NC(c2ccccc2)=C1C#N (configuration not stated) was tested, and the inhibition was inactive: 1.26%. For CCOP(OCC)N1CCOCC1, the inhibition was inactive: -6.36%. In the case of O=P(C=C(Cl)c1ccccc1)(C=C(Cl)c1ccccc1)Nc1nncs1, the inhibition is reported as inactive: -5.28%. For O=C(O[C@H]1CN2CCC1CC2)C1NCc2ccccc2[C@@H]1c1ccccc1 (some centres not stated), the inhibition was inactive: -2.85%. With CC(C)(C)NC1=NCC(CI)S1 (configuration not stated) the inhibition was inactive: 11.1%. With COc1cc(Br)c([N+](=O)[O-])nc1[N+](=O)[O-] the inhibition was inactive: -2.87%. In the case of CN(C(=O)Cc1ccc(Cl)c(Cl)c1)[C@H]1CCCC[C@@H]1N1CCCC1, the inhibition is reported as inactive: 3.79% and inactive: 3.32%. With COP1(=S)c2c(C)nn(-c3ccccc3)c2N=C(c2ccc(F)cc2)N1C (configuration not stated) the inhibition was inactive: -9.76%. With CC1CCC(C(C)C)C(OP(=O)(Nc2nccs2)c2ccccc2)C1 (configuration not stated) the inhibition was inactive: -5.3%. CC[N+](CC)=C1SC2CS(=O)(=O)C(Br)C2(C)S1 (configuration not stated) was tested, and the inhibition was inactive: -1.05%. In the case of O=C(OC1CN2CCC1CC2)c1ccccc1 (configuration not stated), the inhibition is reported as inactive: -2.72%. With CN(C(=O)Cc1ccc(Cl)c(Cl)c1)[C@@H]1CCCC[C@@H]1N1CCCC1 the inhibition was inactive: -8.95%. In the case of O=C(c1cccc([N+](=O)[O-])c1)c1ccc([N+](=O)[O-])c([N+](=O)[O-])c1, the inhibition is reported as inactive: -4.77%. With CN(C)c1ccc2c(c1)N1Cc3ccccc3C1=NP2(=O)c1ccccc1 (configuration not stated) the inhibition was inactive: -3.32%. O=C(NC1CCS(=O)(=O)C1)NP(=S)(Oc1ccccc1)Oc1ccccc1 (configuration not stated) was tested, and the inhibition was inactive: 1.18%. For Cc1c([N+](=O)[O-])c([N+](=O)[O-])nn1CC(=O)Nc1ccc([N+](=O)[O-])cc1Cl, the inhibition was inactive: -2.06%. With O=P1(Nc2nncs2)C=C(c2ccccc2)SC(c2ccccc2)=C1 the inhibition was inactive: 2.07%. In the case of BrCC1CN=C(N2CCOCC2)S1 (configuration not stated), the inhibition is reported as inactive: 1.62%. With CCC(C)C(=O)N1CCCC(C(=O)OC2CN3CCC2CC3)C1 (configuration not stated) the inhibition was inactive: -9.3%. O=P(Nc1nccs1)(c1ccccc1)c1ccccc1 was tested, and the inhibition was inactive: -5.57%. In the case of O=P1(Nc2nc(-c3ccc(F)cc3)cs2)C=C(c2ccccc2)OC(c2ccccc2)=C1, the inhibition is reported as inactive: -5.11%. With CCOC(=O)NC(Sc1nc2ccccc2o1)C(Cl)(Cl)Cl (configuration not stated) the inhibition was inactive: -4.37%. In the case of O=P(Nc1ccccn1)(c1ccc(Br)cc1)c1ccc(Br)cc1, the inhibition is reported as inactive: -4.54%. In the case of O=[N+]([O-])c1ccc(-c2csc(NP3(=O)C=C(c4ccccc4)OC(c4ccccc4)=C3)n2)cc1, the inhibition is reported as inactive: -3.04%. In the case of O=C1c2no[n+]([O-])c2C(=O)c2no[n+]([O-])c21, the inhibition is reported as inactive: 1.06%. CCSP(=O)(c1ccccc1)c1ccccc1 was tested, and the inhibition was inactive: -5.68%. For CN1CC(=O)NC1=NP(=O)(OCc1ccccc1)OCc1ccccc1, the inhibition was inactive: -3.21%. With BrC1CSc2nc3ccccc3n2C1c1ccccc1 (configuration not stated) the inhibition was inactive: -9.7%. In the case of CC1CCC(C(C)C)C(OP(=O)(Nc2ccccn2)c2ccccc2)C1 (configuration not stated), the inhibition is reported as inactive: -5.89% and inactive: -7.77%. With Cc1n[n+]2c([nH]c1=O)SCC(Br)C2c1ccccc1 (configuration not stated) the inhibition was inactive: 6.7%. With ClCCNC1C2CC3CC(C2)CC1C3 (configuration not stated) the inhibition was inactive: -5.22%. With CCOP(=O)(NC(=NC(C)c1ccccc1)NC(C)c1ccccc1)OCC (configuration not stated) the inhibition was inactive: -2.27%. CN(CCCl)Cc1cc(Cl)c(NC2=NCCN2)c(Cl)c1 was tested, and the inhibition was inactive: -3.86%. For Cc1ccc(NP(=O)(OCC(F)(F)F)OCC(F)(F)F)nc1, the inhibition was inactive: -1.78%. In the case of CN1C(=O)C2C(N=C(N3CCOCC3)N2CCc2ccccc2)N(C)C1=O (configuration not stated), the inhibition is reported as inactive: 6.23%. With COc1cc(-n2cnnn2)ccc1-n1cnnn1 the inhibition was inactive: -10.6%. CN(CCCl)Cc1cc2cc(I)ccc2s1 was tested, and the inhibition was inactive: 4.85%. In the case of CN(C(=O)Cc1ccc(Cl)c(Cl)c1)[C@@H]1CC[C@]2(CCCO2)C[C@H]1N1CCCC1, the inhibition is reported as inactive: 10.1%. With Cc1ccnc(NP2(=O)C=C(c3ccccc3)OC(c3ccccc3)=C2)c1 the inhibition was inactive: 2.22%. For CN(C(=O)Cc1ccccc1)[C@@H]1CC[C@]2(CCCO2)C[C@H]1N1CCCC1, the inhibition was inactive: 0.592%. CCOP1(=S)c2c(C)nn(-c3ccccc3)c2N=C(c2ccc(F)cc2)N1C (configuration not stated) was tested, and the inhibition was inactive: -5.16%. In the case of NC(=O)Nc1ccc([As](=O)(O)O)cc1, the inhibition is reported as inactive: -2.96%. CC(C)N(C(=O)C12CC3CC(C1)CC(P(=O)(Cl)Cl)(C3)C2)C(C)C was tested, and the inhibition was inactive: 0.382%. For CN1c2ccccc2N2CC(C)(CI)SC12 (configuration not stated), the inhibition was inactive: -3.83%. With O=P(Nc1nccs1)(c1ccccc1)c1nc2ccccc2s1 (configuration not stated) the inhibition was inactive: -5.98%. With CCOP1(=S)c2c(C)nn(CCC#N)c2N=C(c2ccccc2F)N1C (configuration not stated) the inhibition was inactive: 1.72%. In the case of COc1cccc(OP(=NC(=S)N2CCOCC2)(C(C)(C)C)C(C)(C)C)c1, the inhibition is reported as inactive: -5.17%. With COP1(=S)N=C2c3ccccc3CN2c2cc(N(C)C)ccc21 (configuration not stated) the inhibition was inactive: -3.1%. CC(C)NC(=O)NP(=O)(Oc1ccccc1)Oc1ccccc1 was tested, and the inhibition was inactive: -7.05%. With O=C(OC1CN2CCC1CC2)c1cccc2[nH]cnc12 (configuration not stated) the inhibition was inactive: -2.29%. In the case of Nc1nonc1OCCOc1nonc1N, the inhibition is reported as inactive: 6.84%. O=P1(Nc2nc(-c3ccccc3)cs2)C=C(c2ccccc2)OC(c2ccccc2)=C1 was tested, and the inhibition was inactive: 0.374%. With N#CCOC(=O)C(O)(c1ccccc1)c1ccccc1 the inhibition was inactive: 3.71%. O=P(N=c1nc(-c2ccccc2)n(-c2ccccc2)s1)(N1CCOCC1)N1CCOCC1 was tested, and the inhibition was inactive: -8.57%. For CN(C)C1=C(c2c([N+](=O)[O-])cc([N+](=O)[O-])cc2[N+](=O)[O-])CCCC1, the inhibition was inactive: -23.1%. For CCCOP(=O)(OCCC)O/C(C)=C/SC#N, the inhibition was inactive: -3.56%. In the case of O=C1OC2C3CC(CC13)C2SC(CCl)C(F)(F)F (configuration not stated), the inhibition is reported as inactive: -1.96%. For COc1ccc2nc(NP(=O)(c3ccccc3)c3ccccc3)sc2c1, the inhibition was inactive: -3.58%. With COP1(=S)c2c(C)nn(-c3ccccc3)c2N=C(c2ccccc2)N1C1CC1 (configuration not stated) the inhibition was inactive: -4.65%. With N#Cc1ccc(-c2csc(NP3(=O)C=C(c4ccccc4)OC(c4ccccc4)=C3)n2)cc1 the inhibition was inactive: -4.8%. In the case of O=C(CBr)c1ccc([N+](=O)[O-])cc1, the inhibition is reported as inactive: -1.03%.
